Only a part is listed here, and it is no random draw. Some salts and complexes are drawn in separate pieces, as the source files them; their charges need not balance. Calls of active or inactive are those of the source. No stated cut-off is given here; in the data, active means normalized activity above about 1.9%; inactive means the rest.

The chains behind the UniProt entries cited, without tags or fusion partners. Where a name states a change or a piece, a line headed by the entry shows the natural chain unless it says otherwise.
UniProt Q969H0, whole entry, stated change not applied: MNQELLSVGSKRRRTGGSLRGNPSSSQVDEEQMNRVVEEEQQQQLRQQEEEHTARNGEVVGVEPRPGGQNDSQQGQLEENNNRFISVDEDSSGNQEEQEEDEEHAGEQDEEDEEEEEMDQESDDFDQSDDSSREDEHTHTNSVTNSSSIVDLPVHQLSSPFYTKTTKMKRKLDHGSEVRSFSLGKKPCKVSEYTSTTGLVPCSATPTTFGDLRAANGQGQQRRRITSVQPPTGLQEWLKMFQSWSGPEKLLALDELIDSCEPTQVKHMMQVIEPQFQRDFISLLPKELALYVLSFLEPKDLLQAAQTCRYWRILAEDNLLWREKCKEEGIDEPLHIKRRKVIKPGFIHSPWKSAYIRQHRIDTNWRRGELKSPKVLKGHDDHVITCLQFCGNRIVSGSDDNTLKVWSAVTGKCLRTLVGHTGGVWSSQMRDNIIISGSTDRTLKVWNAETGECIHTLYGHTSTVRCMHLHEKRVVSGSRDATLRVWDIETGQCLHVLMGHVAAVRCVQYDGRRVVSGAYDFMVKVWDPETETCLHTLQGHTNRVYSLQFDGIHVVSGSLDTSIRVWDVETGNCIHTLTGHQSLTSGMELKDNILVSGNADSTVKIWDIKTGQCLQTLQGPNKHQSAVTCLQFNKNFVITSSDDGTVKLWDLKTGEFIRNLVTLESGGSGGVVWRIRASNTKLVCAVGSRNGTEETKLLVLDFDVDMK

Experimental findings from PubChem BioAssay AID1259310 (The Scripps Research Institute Molecular Screening Center, 2017) are described below.

The target of the test is F-box/WD repeat-containing protein 7 (Homo sapiens) (UniProt Q969H0). Description: FBW7 E3 ligase activators, primary screen, biochemical, AlphaScreen, human (AID 1259310).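 Further: purified mutant Fbw7 with reduced substrate affinity.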 Particulars: AlphaScreen FBW7–phospho-cyclin E peptide binding, activator screen; at 26.1 µM; active compounds read high. A general note: Bead proximity is the source of the signal in Alpha formats.
In the case of `Cc1ccc(C)c(NP(C)(=O)Oc2ccccc2)c1` (stereo not drawn), the normalized activity (activation) was inactive: -0.42%.

On to `O=[N+]([O-])c1cc2[nH]c3cc([N+](=O)[O-])c([N+](=O)[O-])cc3c2cc1[N+](=O)[O-]`, for which the normalized activity (activation) is inactive: -0.32%.

In the case of `C=CCC1(CC=C)CCCCCCCCCCCN1.O=[N+]([O-])c1cc([N+](=O)[O-])c(O)c([N+](=O)[O-])c1`, the normalized activity (activation) was inactive: 0.58%.

`CP(=O)(Nc1cccc(Br)c1)Oc1ccccc1` (stereo not drawn): the normalized activity (activation) was inactive: 0.09%.

On to `CCOC(=O)c1ccc(NP(C)(=O)Oc2cc(C)cc(C)c2)cc1` (stereo not drawn), for which the normalized activity (activation) was inactive: 0.09%.

Take `O=c1[nH]c2cc([N+](=O)[O-])c([N+](=O)[O-])c([N+](=O)[O-])c2[nH]1`: the normalized activity (activation) was inactive: 1.79%.

Take `COc1ccc(OP(C)(=O)Nc2cccc(Cl)c2C)cc1` (stereo not drawn): the normalized activity (activation) is inactive: 0.16%.

Turning to `COc1ccccc1OP(C)(=O)Nc1ccc(Cl)cc1` (stereo not drawn), the normalized activity (activation) was inactive: 0.88%.

Turning to `COc1ccccc1OP(C)(=O)Nc1cccc(Br)c1` (stereo not drawn), the normalized activity (activation) was inactive: 0.08%.

Take `CC1=[N+](C)C(C)(C)Cc2ccccc21.O=[N+]([O-])c1cc([N+](=O)[O-])c(O)c([N+](=O)[O-])c1`: the normalized activity (activation) was inactive: -0.08%.

On to `CN(C)/N=C/c1ccc(-c2c([N+](=O)[O-])cc([N+](=O)[O-])cc2[N+](=O)[O-])o1`, for which the normalized activity (activation) was inactive: -0.52%.

For the molecule `Cc1cc(-c2nc3ccccc3[nH]2)c2ccccc2n1.O=[N+]([O-])c1cc([N+](=O)[O-])c(O)c([N+](=O)[O-])c1`, the normalized activity (activation) was inactive: 0%.

For the molecule `COc1ccc(NP(C)(=O)Oc2ccc(Cl)cc2)cc1` (stereo not drawn), the normalized activity (activation) was inactive: 0.01%.

On to `CP(=O)(O)OC(c1ccccc1)C(Cl)(Cl)C(F)(F)F` (stereo not drawn), for which the normalized activity (activation) was inactive: -0.2%.

For `CCN(CC)C(=O)c1c([N+](=O)[O-])cc([N+](=O)[O-])cc1[N+](=O)[O-]`, the normalized activity (activation) is inactive: 0.03%.

Consider `Nc1nonc1-c1no[n+]([O-])c1-c1nonc1N`, for which the normalized activity (activation) is inactive: -0.03%.

On to `CP(=O)(Nc1cccc(Br)c1)Oc1ccc(Cl)cc1` (stereo not drawn), for which the normalized activity (activation) is inactive: 0.94%.

Turning to `CCCOc1ccc(NP(C)(=O)Oc2ccccc2OC)cc1` (stereo not drawn), the normalized activity (activation) was inactive: -0.14%.

As for `COc1ccccc1OP(C)(=O)Nc1c(C)cccc1C` (stereo not drawn), the normalized activity (activation) was inactive: 0.19%.

Consider `Cc1cc(N(C)C)cc[n+]1C(=O)N(C)C.c1ccc([B-](c2ccccc2)(c2ccccc2)c2ccccc2)cc1`, for which the normalized activity (activation) is inactive: 0.19%.

In the case of `CCN(CC)C(C)COC(=O)C(O)(c1ccccc1)c1ccccc1` (stereo not drawn), the normalized activity (activation) was inactive: -0.01%.

Turning to `CCOC(=O)C(CC)C1=NC(C)(C)Cc2ccccc21.O=[N+]([O-])c1cc([N+](=O)[O-])c(O)c([N+](=O)[O-])c1` (stereo not drawn), the normalized activity (activation) is inactive: -0.13%.

`CP(=O)(Nc1ccc(Br)cc1)Oc1ccc(Cl)cc1` (stereo not drawn): the normalized activity (activation) was inactive: 0.27%.
